Screens: PubChem, National Center for Advancing Translational Sciences (NCATS)
Nrf2 activator: activators of Nrf2 (ARE) signaling; 410,000 compounds, 0.31% hits; AREc32 ARE-luciferase reporter (MCF7-derived line), luminescence, 24 h; Potency, µM (top dose mostly 46.1 µM), without a hit: at the top dose activation, usual class: activators; also: potency is read from the fitted curve at half-maximal effect; % of control where 0% means no effect; nearly all actives have a fitted effect of over 65% in size
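For detection, Steady-Glo was added and plates sat 30 min at RT; before that, AREc32_Fluc cells grown overnight in OPTI-MEM/5% FBS had been treated with 23 nL compound for 24 hr at 37 deg C.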
Nrf2 inh: inhibitors of Nrf2 signaling; AID 504444; 360,000 compounds, 2.1% hits; A549 ARE-Fluc reporter, luciferase luminescence, 18-24 h; Potency, µM (doses to about 46 µM), inactives show at the highest dose activity change, negative = inhibition, most hits filed as inhibitors; also: potency is read from the fitted curve at half-maximal effect; % is scaled to controls: 0 for no effect and ±100 for the full control effect; nearly all actives have a fitted effect of over 60% in size
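Quantitative HTS in A549 cells stably bearing an antioxidant response element-firefly luciferase construct. Inhibition of Nrf2-driven transcription was scored by luminescence after 18-24 h of compound exposure at 37 °C.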
miR-21 reporter: miR-21 reporter, rising signal | AID 2288 | HeLa miR-21 FLuc reporter, luciferase, 48 h | 340,000 tested, under 10 active | Potency, µM (doses to about 38.3 µM), for inactives: at the top dose reporter change, positive = more light; active = well fitted rising curve with a large enough effect; inconclusive = small, poorly fitted or top-dose-only effect; inactive = no such curve, though single readings can be large or run the other way;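 note: % of control where 0% means no effect; miR-21 action dims this reporter so a rising signal means less miR-21 action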
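Luminescence from a firefly luciferase reporter carrying a miR-21 binding site downstream, stably expressed under a CMV promoter in HeLa cells that make miR-21 endogenously, reports miRNA modulation after 48 h compound exposure up to approximately 40uM final.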
Mito fusion act: inhibitors of mitochondrial division or activators of mitochondrial fusion. S. cerevisiae fusion-defective mutant growth rescue, CellTiterGlo 48 h. Potency, µM (titrated, usually from 46.1 µM), for the others: top-dose growth rescue (activation), hits mostly activators. 320,000 compounds, 0.23% hits; also: potency is read from the fitted curve at half-maximal effect; % of control where 0% means no effect; nearly all actives have a fitted effect of over 45% in size
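Temperature-sensitive fusion-defective S. cerevisiae (e.g. fzo1-1, mgm1-5) were grown with compound in YPEG medium (3% ethanol, 3% glycerol) for 48 hours at 37C. Growth rescue was measured as viability by CellTiterGlo luminescence after 10 minutes at ambient.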
A549 tox-1: kills or reduces viability of A549 cells in Nrf2 counter-screen; A549 ARE-Fluc cells, CellTiter-Fluor viability, 18-24 h; Potency, µM (titrated, usually from 46 µM), for the others: at the top dose activity change, negative = cytotoxicity, actives largely listed as inhibitors; 390,000 compounds, 0.16% hits; AID 504648; also: potency is read from the fitted curve at half-maximal effect; % is scaled to controls: 0 for no effect and ±100 for the full control effect
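Cytotoxicity counterscreen: CellTiter-Fluor fluorescence was measured in A549 ARE_Fluc cells after 18-24 h of compound exposure in a concentration series. The subsequent BugLite luminescent read reports ARE-luciferase activity.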
FLuc enzyme inh: firefly luciferase inhibition, Nrf2 hit validation | shares compounds with Nrf2 inh | purified firefly luciferase, luminescence inhibition | Potency, µM (highest dose often 57.5 µM), for the others: top-dose activity change, negative = inhibition, usual class: inhibitors | 1,400 compounds, 4% hits; also: potency is read from the fitted curve at half-maximal effect; % is scaled to controls: 0 for no effect and ±100 for the full control effect; nearly all actives have a fitted effect of over 65% in size
A549 tox-2: A549 cytotoxicity, Nrf2 inhibitor counterscreen; shares compounds with Nrf2 inh; A549 ARE-Fluc cells, cytotoxicity counterscreen; Potency, µM (titrated, usually from 46.1 µM), for the others: at the highest dose activity change, negative = cytotoxicity, hits mostly inhibitors; 1,400 compounds, 2% hits;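 also: potency is read from the fitted curve at half-maximal effect; cells exposed to compounds for 18 to 24 hours; % is scaled to controls: 0 for no effect and ±100 for the full control effect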
Nrf2 ARE inh: confirmation of Nrf2 inhibitors in A549 ARE reporter cells | Potency, µM (highest dose often 46.1 µM), without a hit: at the top dose activity change, negative = inhibition, actives largely listed as inhibitors | AID 720524 | shares compounds with Nrf2 inh | 1,400 compounds, 74% hits | A549 ARE-firefly luciferase reporter, luminescence; also: potency is read from the fitted curve at half-maximal effect; % is scaled to controls: 0 for no effect and ±100 for the full control effect; nearly all actives have a fitted effect of over 65% in size
An asterisk follows results filed as active. A selection: hits, their analogues and other compounds. The true share with any hit is near 2.3%. Unless noted, calls follow the shape of the dose curve; as a rule, active = well fitted curve in the direction sought with a large enough effect; inconclusive = small, poorly fitted or top-dose-only effect, or another doubt; inactive = no such curve, though single readings can be large; an effect the other way counts as inactive or inconclusive.

What do the screens show for `COc1cc(NC(=O)c2ccc(-c3nc(COc4ccccc4)c(C)o3)cc2)cc(OC)c1`?
Nrf2 activator: 1%; Nrf2 inh: 5.2µM*; miR-21 reporter: 25%; A549 tox-1: 0%; FLuc enzyme inh: -12%; A549 tox-2: -7%; Nrf2 ARE inh: 8.2µM*

How did Cc1oc(-c2ccc(C(=O)Nc3ccc(F)cc3)cc2)nc1COc1ccccc1 do in these assays?
Nrf2 activator: -1%; Nrf2 inh: -10%; miR-21 reporter: 1%; A549 tox-1: 0%

How did CCc1ccc(S(=O)(=O)c2nnn3c2nc(Nc2ccc(NC(C)=O)cc2)c2sccc23)cc1 do in these assays?
Nrf2 activator: -1%; Nrf2 inh: inconclusive; miR-21 reporter: 0%; A549 tox-1: -6%

How did N#Cc1cc(-c2ccccc2)[nH]c1-c1nccc2ccccc12 do in these assays?
Nrf2 activator: 0%; Nrf2 inh: 9.2µM*; miR-21 reporter: 25%; Mito fusion act: -13%; A549 tox-1: -14%; FLuc enzyme inh: -12%; A549 tox-2: -4%; Nrf2 ARE inh: inconclusive

What do the screens show for `Cc1nc2ccc(S(=O)(=O)CCC(=O)Nc3ccc(C(C)C)cc3)cc2s1`?
Nrf2 activator: 0%; Nrf2 inh: 3%; miR-21 reporter: -8%; A549 tox-1: 9%

What do the screens show for `O=c1oc(-c2ccco2)nc2c1cnn2-c1ccccc1`?
Nrf2 activator: 0%; miR-21 reporter: -2%; Mito fusion act: -2%; A549 tox-1: 1%

How did O=c1c2cnn(-c3ccccc3)c2nc(-c2ccco2)n1-c1ccccc1 do in these assays?
Nrf2 activator: 3%; Nrf2 inh: 9.2µM*; miR-21 reporter: 19%; Mito fusion act: 19%; A549 tox-1: -21%; FLuc enzyme inh: -22%; A549 tox-2: -12%; Nrf2 ARE inh: 18µM*

Results for COc1cc(NC(=O)CSc2nc(-c3ccco3)cc(C(F)(F)F)n2)cc(OC)c1OC ?
Nrf2 activator: 0%; Nrf2 inh: 9.2µM*; miR-21 reporter: 6%; A549 tox-1: -14%; FLuc enzyme inh: 5%; A549 tox-2: -12%; Nrf2 ARE inh: inconclusive

What do the screens show for `COc1cc(NC(=O)CCCSc2nc(-c3ccco3)cc(C(F)(F)F)n2)cc(OC)c1OC`?
Nrf2 activator: 5%; Nrf2 inh: inconclusive; miR-21 reporter: 14%; Mito fusion act: -1%; A549 tox-1: -29%

What do the screens show for `Cc1c(C)n(Cc2ccc(F)cc2)c2ccc(C(=O)NCc3ccco3)cc12`?
Nrf2 activator: 0%; Nrf2 inh: inconclusive; miR-21 reporter: 9%; A549 tox-1: 0%

Results for CC(C)COc1ccc(C(=O)Nc2scc(-c3ccc(Br)cc3)c2C(=O)OC(C)C)cc1 ?
Nrf2 activator: -1%; Nrf2 inh: 6%; miR-21 reporter: -2%; A549 tox-1: -2%

What do the screens show for `Cn1c(=O)n(-c2ccc(C(C)(C)C#N)cc2)c2c3cc(-c4cnc5ccccc5c4)ccc3ncc21`?
FLuc enzyme inh: 0%; A549 tox-2: inconclusive; Nrf2 ARE inh: 0.92µM*

The closing 3 entries of the section above come first, to join the parts.
What do the screens show for `Cc1c(C)n(Cc2ccc(F)cc2)c2ccc(C(=O)NCc3ccco3)cc12`?
Nrf2 activator: 0%; Nrf2 inh: inconclusive; miR-21 reporter: 9%; A549 tox-1: 0%

Results for CC(C)COc1ccc(C(=O)Nc2scc(-c3ccc(Br)cc3)c2C(=O)OC(C)C)cc1 ?
Nrf2 activator: -1%; Nrf2 inh: 6%; miR-21 reporter: -2%; A549 tox-1: -2%

What do the screens show for `Cn1c(=O)n(-c2ccc(C(C)(C)C#N)cc2)c2c3cc(-c4cnc5ccccc5c4)ccc3ncc21`?
FLuc enzyme inh: 0%; A549 tox-2: inconclusive; Nrf2 ARE inh: 0.92µM*

What do the screens show for `COc1ccc(CNC(=O)Cn2nc3c(cc2=O)CCCC3)cc1`?
Nrf2 activator: 0%; miR-21 reporter: -1%; A549 tox-1: 2%

Results for O=C(/C=C/c1ccccc1)NC(NC(=S)Nc1ccc(Cl)cc1)C(Cl)(Cl)Cl (stereo unspecified) ?
Nrf2 activator: 3%; Nrf2 inh: 6.5µM*; miR-21 reporter: inconclusive; Mito fusion act: 2%; A549 tox-1: inconclusive; FLuc enzyme inh: inconclusive; A549 tox-2: inconclusive; Nrf2 ARE inh: 5.2µM*

How did CN(CC(=O)Nc1ccc(Cl)cc1)C(=O)c1ccc(N2CCCC2=O)cc1 do in these assays?
Nrf2 activator: 4%; Nrf2 inh: 6%; Mito fusion act: 0%; A549 tox-1: 8%

Results for CN(CC(=O)Nc1ccc(OC(F)(F)F)cc1)C(=O)c1ccc(N2CCCC2=O)cc1 ?
Nrf2 activator: 0%; Nrf2 inh: 2.9µM*; Mito fusion act: -4%; A549 tox-1: -6%; FLuc enzyme inh: 2%; A549 tox-2: 1%; Nrf2 ARE inh: 5.2µM*

What do the screens show for `CCCCn1c(SCC(=O)Nc2nnc(C(C)C)s2)nc2c1c(=O)n(C)c(=O)n2C`?
Nrf2 activator: -1%; Nrf2 inh: 7.3µM*; miR-21 reporter: 1%; Mito fusion act: 0%; A549 tox-1: inconclusive; FLuc enzyme inh: 1%; A549 tox-2: -18%; Nrf2 ARE inh: 16µM*

How did CCCn1c(SCC(=O)Nc2nnc(CC)s2)nc2c1c(=O)n(C)c(=O)n2C do in these assays?
miR-21 reporter: -6%; Mito fusion act: 0%

Results for CCOc1ccc(C(=O)Nc2ccc3nc(SCC(=O)N(C)c4ccccc4)sc3c2)cc1 ?
Nrf2 activator: 0%; Nrf2 inh: 5.8µM*; miR-21 reporter: inconclusive; A549 tox-1: -9%; FLuc enzyme inh: inconclusive; A549 tox-2: -11%; Nrf2 ARE inh: 8.2µM*

What do the screens show for `CCOc1ccc(C(=O)Nc2ccc3nc(SCC(=O)N4CCCC4)sc3c2)cc1`?
Nrf2 activator: 0%; Nrf2 inh: -20%; miR-21 reporter: 6%; A549 tox-1: 2%

What do the screens show for `CCN(CC)C(=O)c1oc2ccc(S(=O)(=O)N3CC(C)CC(C)C3)cc2c1C` (stereo unspecified)?
Nrf2 activator: 0%; Nrf2 inh: 8.2µM*; miR-21 reporter: inconclusive; Mito fusion act: -2%; A549 tox-1: 0%; FLuc enzyme inh: 0%; A549 tox-2: -6%; Nrf2 ARE inh: 8.2µM*

What do the screens show for `Cc1c(C(=O)NCc2cccnc2)oc2ccc(S(=O)(=O)N3CC(C)CC(C)C3)cc12` (stereo unspecified)?
Nrf2 activator: 0%; Nrf2 inh: -5%; miR-21 reporter: -4%; Mito fusion act: -4%; A549 tox-1: 0%

Results for CC(=O)[C@@]1(O)Cc2c(O)c3c(c(O)c2[C@H](O[C@H]2C[C@H](N)[C@H](O)[C@H](C)O2)C1)C(=O)c1ccccc1C3=O ?
Nrf2 activator: -2%
